Measurements reported in patent publication US9409888B2, “Dimeric compounds” (priority 2012, dated 2016).
Counter-ions that a name gives are not always drawn.

The chains behind the UniProt entries cited, without tags or fusion partners. A line that says so, or that is headed by a name, gives the form on record, which may keep a tag or linker.
UniProt P98170, other isoform, or with tags, fused parts or gaps, stated change not applied: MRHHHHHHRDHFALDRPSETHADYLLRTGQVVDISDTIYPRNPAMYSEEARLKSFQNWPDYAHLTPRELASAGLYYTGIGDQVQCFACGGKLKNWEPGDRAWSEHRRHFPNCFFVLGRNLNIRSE
UniProt P98170, other isoform, or with tags, fused parts or gaps: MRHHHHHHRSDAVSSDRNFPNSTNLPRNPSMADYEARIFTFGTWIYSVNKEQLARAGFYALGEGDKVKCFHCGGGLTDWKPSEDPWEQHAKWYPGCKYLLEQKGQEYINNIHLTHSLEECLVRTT

Columns and labels:
BIR2 domain of XIAP = BIR2 domain of XIAP (Homo sapiens (Human), UniProt P98170, C202A/C213G); assay: TR-FRET assay for BIR2: inhibition of binding of XIAP BIR2 domain to Peptide A (SMAC-derived peptide); conditions: 6× His-tagged BIR2 domain (aa 124-240 of XIAP) 10 nM, Peptide A 20 nM
Experimental: TR-FRET Assay for BIR2 and BIR3
The peptides were labeled with the fluorescent tags FITC or TAMRA and Kd values were determined by fluorescence polarization assay. […] The peptide sequence was derivatized with biotin to provide […]-(ε-biotin)-OH 1:2 TFA as the substrate for the TR-FRET assay.
The XIAP protein sequence was obtained from the SWISS-PROT protein sequence database and the BIR2 and BIR3 domains were derived from that. The sequence of the BIR2 domain used for the TR-FRET assay is […].
Time-resolved fluorescence resonance energy transfer (TR-FRET) signals were measured 1 hour later at room temperature. Test compound potency was assessed at 10 serially diluted concentrations. Percentage of inhibition at each concentration was determined to generate an IC50 value for each test compound.

BIR3 domain of XIAP = BIR3 domain of XIAP (Homo sapiens (Human), UniProt P98170); assay: TR-FRET assay for BIR3: inhibition of binding of XIAP BIR3 domain to Peptide A (SMAC-derived peptide); conditions: 6× His-tagged BIR3 domain (aa 241-356 of XIAP) 10 nM, Peptide A 20 nM

Compound | IC50 (BIR2 domain of XIAP) [nM] | IC50 (BIR3 domain of XIAP) [nM]
CN[C@@H](C)C(=O)N[C@H]1CN(C(=O)c2cccc(C(=O)N3C[C@H](NC(=O)[C@H](C)NC)C(=O)N(Cc4c(OC)ccc5cc(Br)ccc45)c4ccccc43)c2)c2ccccc2N(Cc2c(OC)ccc3cc(Br)ccc23)C1=O [Ex 6, (2S)-N-[(3S)-5-[(6-Bromo-2-methoxy-1-naphthyl)methyl]-1-[3-[(3S)-5-[(6-bromo-2-methoxy-1-naphthyl)methyl]-3-[[(2S)-2-(methylamino)propanoyl]amino]-4-oxo-2,3-dihydro-1,5-benzodiazepine-1-carbonyl]benzoyl]-4-oxo-2,3-dihydro-1,5-benzodiazepin-3-yl]-2-(methylamino)propanamide dihydrochloride] | 0.899 | > 5480
CN[C@@H](C)C(=O)N[C@H]1CN(C(=O)c2ccc(C(=O)N3C[C@H](NC(=O)[C@H](C)NC)C(=O)N(Cc4c(OC)ccc5ccccc45)c4ccccc43)cc2)c2ccccc2N(Cc2c(OC)ccc3ccccc23)C1=O [Ex 25, (2S)-N-[(3S)-5-[(2-Methoxy-1-naphthyl)methyl]-1-[4-[(3S)-5-[(2-methoxy-1-naphthyl)methyl]-3-[[(2S)-2-(methylamino)propanoyl]amino]-4-oxo-2,3-dihydro-1,5-benzodiazepine-1-carbonyl]benzoyl]-4-oxo-2,3-dihydro-1,5-benzodiazepin-3-yl]-2-(methylamino)propanamide dihydrochloride] | 0.452 | > 5480
